The chains behind the UniProt entries cited, without tags or fusion partners.
UniProt Q96RI1, whole entry: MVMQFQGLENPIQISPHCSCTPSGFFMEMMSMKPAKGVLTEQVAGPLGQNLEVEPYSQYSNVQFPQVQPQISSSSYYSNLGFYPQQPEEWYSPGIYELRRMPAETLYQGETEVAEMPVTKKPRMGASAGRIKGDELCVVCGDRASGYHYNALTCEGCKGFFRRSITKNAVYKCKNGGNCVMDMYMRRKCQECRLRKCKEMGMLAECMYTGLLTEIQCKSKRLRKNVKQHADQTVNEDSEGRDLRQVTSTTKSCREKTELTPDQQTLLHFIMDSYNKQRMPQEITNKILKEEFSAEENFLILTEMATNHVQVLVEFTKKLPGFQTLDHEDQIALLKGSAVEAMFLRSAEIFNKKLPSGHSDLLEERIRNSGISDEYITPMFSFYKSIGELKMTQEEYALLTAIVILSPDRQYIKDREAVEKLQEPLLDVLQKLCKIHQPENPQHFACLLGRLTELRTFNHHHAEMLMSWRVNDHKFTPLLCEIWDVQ

According to patent US10988449B2, “Isoxazole derivatives as nuclear receptor agonists and uses thereof” (IL DONG PHARMACEUTICAL CO., LTD., priority 2017, dated 2021):

Experiments:
human FXR = human FXR (Homo sapiens, UniProt Q96RI1); assay: FXR reporter assay (cellular FXR activities); format: cell-based
Mouse pharmacokinetics = assay: Mouse pharmacokinetics; parameters: concentration or dose not given beside the values; settings: Balb/c male mice; blood samples 15 to 1140 min; LC-MS/MS

O=C(O)c1ccc(C2CC2c2ccc(OCc3c(-c4c(Cl)cccc4Cl)noc3C3CC3)cc2Cl)cc1 (stereo not drawn)
EC50 (human FXR; read-out: Reporter Cell EC50, FXR reporter cells, 24 hours incubation, luciferase): 200 to 1000 nM | Emax (%) (GW4064 Emax = 100%) (human FXR; relative to GW4064 Emax = 100%): 90% | AUC (Mouse pharmacokinetics): 352.09 ng·h/mL
